pIC50: −log10 of the molar value.
Experiments:
[1] = Inhibitory activity against recombinant human secretory phospholipase A2 (s-PLA2) by phosphatidylcholine/deoxycholate assay (PC/DOC).
Phospholipase A2 = Phospholipase A2 (Homo sapiens, UniProt P04054); assay: Inhibition of recombinant human secretory phospholipase A2 (sPLA2), chromogenic screening assay.

Protein sequences, listed by entry. Tags and fused reporters are not part of them. Lines headed by an entry give the natural chain unless they say otherwise; changes in a name come on top.
UniProt P04054: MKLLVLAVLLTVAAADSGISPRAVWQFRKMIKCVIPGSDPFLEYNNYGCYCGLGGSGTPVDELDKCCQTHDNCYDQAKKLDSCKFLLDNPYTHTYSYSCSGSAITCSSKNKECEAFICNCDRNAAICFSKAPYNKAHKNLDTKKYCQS

| Structure (SMILES) | pIC50 [1] | pIC50 (Phospholipase A2) |
| --- | --- | --- |
| CCc1c(C(=O)C(N)=O)c2c(OCCCC(=O)O)cccn2c1Cc1ccccc1-c1ccccc1 [4-(1-Aminooxalyl-3-biphenyl-2-ylmethyl-2-ethyl-indolizin-8-yloxy)-butyric acid] | 6.68 |  |
| CCc1c(C(=O)C(N)=O)c2c(OCC(=O)O)cccn2c1Cc1ccc2ccccc2c1 [(1-Aminooxalyl-2-ethyl-3-naphthalen-2-ylmethyl-indolizin-8-yloxy)-acetic acid] | 8.14 | 7.77 |
| CCc1c(C(=O)C(N)=O)c2c(OCC(=O)O)cccn2c1Cc1ccc(-c2ccccc2)cc1 [(1-Aminooxalyl-3-biphenyl-4-ylmethyl-2-ethyl-indolizin-8-yloxy)-acetic acid] | 7.89 |  |
| Cc1c(C(=O)C(N)=O)c2c(OCC(=O)O)cccn2c1CC1CCCCC1 [(1-Aminooxalyl-3-cyclohexylmethyl-2-methyl-indolizin-8-yloxy)-acetic acid] | 7.82 |  |
